Amino acid sequences for entries named in this document (tags omitted).
UniProt P01721, whole entry, looked up, stated change not applied: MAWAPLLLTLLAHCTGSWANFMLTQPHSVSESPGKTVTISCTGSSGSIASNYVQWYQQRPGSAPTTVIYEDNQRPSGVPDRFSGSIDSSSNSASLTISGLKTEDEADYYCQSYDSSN

In ChEMBL document CHEMBL4834435, “Discovery of Potent Coumarin-Based Kinetic Stabilizers of Amyloidogenic Immunoglobulin Light Chains Using Structure-Based Design” (J Med Chem, 2021):

Key:
[1] = biological target: Immunoglobulin lambda variable 6-57 (Homo sapiens, UniProt P01721, F49Y/T46L); assay: Stabilization of AL patient derived fluorescein-labeled IGLV6-57 T46L/F49Y mutant measured after 24 hrs by proteolysis coupled-fluorescence polarization assay
[2] = biological target: Immunoglobulin lambda variable 6-57 (Homo sapiens, UniProt P01721); assay: Stabilization of AL patient derived full length fluorescein-labeled IGLV6-57 expressed in Escherichia coli BL21 (DE3) measured after 24 hrs by proteolysis coupled-fluorescence polarization assay
[3] = Protein binding in human plasma at 2 uM after 4 hrs by UPLC-MS/MS analysis; assay type: ADME, cell-free

In the case of `Cc1c(CCN2CC3(CCN(c4nccn5ccnc45)CC3)NC2=O)c(=O)oc2cc(O[C@@H](C)c3ccccc3)ccc12`, the EC50 [1] is reported as 5.5 nM.

With `Cc1c(CCN2CC3(CCN(c4nccn5ccnc45)CC3)NC2=O)c(=O)oc2cc(O[C@H](C)c3ccccc3)ccc12` the EC50 [2] was 4.1 nM and the PPB [3] was > 99.5%.
